The text below walks through data of ChEMBL document CHEMBL1138606, “The discovery of tropane derivatives as nociceptin receptor ligands for the management of cough and anxiety” (Bioorg Med Chem Lett, 2009).

Protein sequences, listed by entry. Tags and fused reporters are not part of them.
UniProt P35372, whole entry: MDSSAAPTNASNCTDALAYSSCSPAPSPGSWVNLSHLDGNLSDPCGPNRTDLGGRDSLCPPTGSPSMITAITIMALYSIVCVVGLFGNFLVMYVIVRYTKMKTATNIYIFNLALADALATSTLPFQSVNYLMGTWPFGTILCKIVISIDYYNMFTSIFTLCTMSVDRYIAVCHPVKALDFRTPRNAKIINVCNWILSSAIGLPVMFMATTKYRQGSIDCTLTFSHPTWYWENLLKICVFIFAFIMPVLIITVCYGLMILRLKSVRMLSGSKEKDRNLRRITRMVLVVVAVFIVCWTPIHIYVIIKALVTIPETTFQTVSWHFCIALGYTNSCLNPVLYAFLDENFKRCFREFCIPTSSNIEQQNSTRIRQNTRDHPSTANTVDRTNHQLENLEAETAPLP

A word on the EC50: it is the concentration giving half of the maximal effect.

The target in this assay is Mu-type opioid receptor (Homo sapiens, UniProt P35372). In words: Agonist activity at human mu opioid assessed as stimulation of GDP-induced [35S]GTPgammaS binding. It is filed as functional. The method in brief:
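Functional agonism measured as enhancement of [35S]GTPγS binding in the presence of GDP, using membranes from cells transfected with the receptor. Values are means of 2–3 experiments.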
(GTPγS is a poorly hydrolysed GTP analogue; its binding reports G protein activation.)

With `NC(=O)C1(c2ccccc2)CC2CCC(C1)N2C(c1ccccc1Cl)c1ccccc1Cl` (stereo unspecified), the concentration for a half-maximal effect (EC50) is 376 nM.
